Reference: ChEMBL document CHEMBL5360672, “Identification of Novel Dual-Target Estrogen Receptor α Degraders with Tubulin Inhibitory Activity for the Treatment of Endocrine-Resistant Breast Cancer” (J Med Chem, 2023)

Species: Homo sapiens
Experiment: Selectivity ratio of relative binding affinity for human ERalpha to relative binding affinity to human ERbeta

`O=S(=O)(Oc1ccccc1)C1CC2OC1C(c1ccc(O)cc1)=C2c1ccc(O)cc1` (stereo unspecified) showed a Selectivity ratio of 2.84.
